Values of other authors in US20100047176A1, “Method and Kit for Testing Stress Effects in Living Organisms” (AARHUS UNIVERSITET, priority 2007, published 2010).

Test system: fish and aquatic invertebrates
Conditions: if it reaches water bodies

Structure (SMILES): N#Cc1cc(Br)c(O)c(Br)c1 [Bromoxynil]
- toxicity to fish / aquatic invertebrates: potentially harmful to fish and aquatic invertebrates
